A word on the Ki: it is the dissociation constant of the complex between target and ligand, obtained from inhibition or displacement.

Protein sequences, listed by entry. Tags and fused reporters are not part of them.
UniProt P41146, whole entry: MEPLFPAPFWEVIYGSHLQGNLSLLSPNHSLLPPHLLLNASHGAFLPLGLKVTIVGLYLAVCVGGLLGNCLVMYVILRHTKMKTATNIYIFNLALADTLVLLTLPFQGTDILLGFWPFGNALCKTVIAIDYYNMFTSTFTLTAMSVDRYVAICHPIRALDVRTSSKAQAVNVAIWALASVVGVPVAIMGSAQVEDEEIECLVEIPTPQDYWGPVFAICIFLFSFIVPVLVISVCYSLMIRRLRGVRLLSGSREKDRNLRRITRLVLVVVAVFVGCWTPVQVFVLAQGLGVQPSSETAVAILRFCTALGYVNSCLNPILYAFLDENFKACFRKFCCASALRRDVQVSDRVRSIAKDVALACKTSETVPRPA
UniProt P35372, whole entry: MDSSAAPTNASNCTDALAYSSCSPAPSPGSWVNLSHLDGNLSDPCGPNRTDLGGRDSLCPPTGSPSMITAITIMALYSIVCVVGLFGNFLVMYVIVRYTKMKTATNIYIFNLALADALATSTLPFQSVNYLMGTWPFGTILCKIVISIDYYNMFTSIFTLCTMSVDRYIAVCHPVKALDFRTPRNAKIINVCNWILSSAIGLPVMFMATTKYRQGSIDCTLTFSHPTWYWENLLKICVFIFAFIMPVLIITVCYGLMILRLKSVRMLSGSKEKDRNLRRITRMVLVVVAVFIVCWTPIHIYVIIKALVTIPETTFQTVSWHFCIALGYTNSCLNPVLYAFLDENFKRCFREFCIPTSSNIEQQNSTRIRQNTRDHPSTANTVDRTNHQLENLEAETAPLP

The source of these data is patent US7563809B2, “Nociceptin analogs” (dated 2009).

The first experiment has as its target human opioid receptor-like receptor (ORL-1) (Homo sapiens, UniProt P41146). Put plainly: Nociceptin affinity at the ORL1 receptor ([35S]GTPgS binding, membranes of recombinant HEK-293 cells). The conditions noted are these: read-out: Nociceptin Affinity calc Ki; Table 1; ORL-1 membranes from recombinant HEK-293 cells; benzothiadiazole/benzothiadiazine series. The method, then: Nociceptin affinity at the ORL1 receptor for preferred compounds was obtained using the following assay:
Membranes from recombinant HEK-293 cells expressing the human opioid receptor-like receptor (ORL-1) (Receptor Biology) were prepared by lysing cells in ice-cold hypotonic buffer (2.5 mM MgCl2, 50 mM HEPES, pH 7.4) (10 ml/10 cm dish) followed by homogenization with a tissue grinder/teflon pestle. Membranes were collected by centrifugation at 30,000×g for 15 min at 4° C. and pellets resuspended in hypotonic buffer to a final concentration of 1-3 mg/ml. Protein concentrations were determined using the BioRad protein assay reagent with bovine serum albumen as standard. Aliquots of the ORL-1 receptor membranes were stored at −80° C.
(§1) Functional SGTPgS binding assays were conducted as follows. ORL-1 membrane solution was prepared by sequentially adding final concentrations of 0.066 mg/ml ORL-1 membrane protein, […], […] and 0.20 nM [^35S]GTPgS to binding buffer (100 mM NaCl, 10 mM MgCl2, 20 mM HEPES, pH 7.4) on ice. The prepared membrane solution ([…]) was transferred to 96-shallow well polypropylene plates containing […] of 20× concentrated stock solutions of agonist prepared in DMSO. Plates were incubated for 30 min at room temperature with shaking. Reactions were terminated by rapid filtration onto 96-well Unifilter GF/B filter plates (Packard) using a 96-well tissue harvester (Brandel) and followed by three filtration washes with 200 ml ice-cold binding buffer (10 mM NaH2PO4, 10 mM Na2HPO4, pH 7.4). Filter plates were subsequently dried at 50° C. for 2-3 hours. Fifty ml/well scintillation cocktail (BetaScint; Wallac) was added and plates were counted in a Packard Top-Count for 1 min/well.
as §1, with “20 nM” for “20 mM”
Data was analyzed using the curve fitting functions in GraphPad PRISMÔ, v.
Regarding `O=S1(=O)Nc2ccccc2N1C1CCN(C2CCc3ccccc3C2)CC1` (centres unmarked), the Ki is 3.45 µM.
Take `O=S1(=O)Nc2ccccc2N1C1CCN(CCC(c2ccccc2)c2ccccc2)CC1`: the Ki was 4.46 µM.
As for `O=S1(=O)Nc2ccccc2N1C1CCN(C2Cc3ccccc3C2)CC1`, the Ki is 5.67 µM.
The same measure, in the same setting: next, `O=S1(=O)Nc2ccccc2N1C1CCN(Cc2ccc(OCc3ccccc3)cc2)CC1`: 7.11 µM.
Still for that read-out and setting: next, `CC(C)C1CCC(N2CCC(N3c4ccccc4CN(CC#N)S3(=O)=O)CC2)CC1` (centres unmarked): 0.033 µM; `O=S1(=O)Nc2ccccc2N1C1CCN(C2CCCCCCC2)CC1`: 2.3 µM.
On the same count and under the same terms, next, `CC(C)CCC(C)N1CCC(N2c3ccccc3NS2(=O)=O)CC1` (centres unmarked): 3.59 µM; `CCCC1CCC(N2CCC(N3c4ccccc4NS3(=O)=O)CC2)CC1` (centres unmarked): 5.1 µM.

The experiment is the same for the next values; noted with them: read-out: Nociceptin Affinity calc Ki; Table 2; ORL-1 membranes from recombinant HEK-293 cells; quinolin-2-one series.
`CC(C)CCC(C)N1CCC(N2C(=O)CCc3ccccc32)CC1` (centres unmarked): the inhibition constant Ki is 0.505 µM.
As to `CC(C)C1CCC(N2CCC(N3C(=O)CCc4ccccc43)CC2)CC1` (centres unmarked), the Ki was 0.08 µM.

The target of the next experiment is Mu opioid receptor (Homo sapiens, UniProt P35372). Briefly: Affinity at the μ receptor ([35S]GTPγS binding, membranes). The conditions noted are these: read-out: Mu Receptor Affinity calc Ki, Table 3. The method, then: Affinity at the μ receptor for compounds was obtained according to the following assay:
Mu opioid receptor membrane solution was prepared by sequentially adding final concentrations of 0.075 μg/μl of the desired membrane protein, 10 μg/ml saponin, 3 μM GDP and 0.20 nM [^35S]GTPγS to binding buffer (100 mM NaCl, 10 mM MgCl2, 20 mM HEPES, pH 7.4) on ice. The prepared membrane solution (190 μl/well) was transferred to 96-shallow well polypropylene plates containing 10 μl of 20× concentrated stock solutions of agonist prepared in DMSO. Plates were incubated for 30 min at room temperature with shaking. Reactions were terminated by rapid filtration onto 96-well Unifilter GF/B filter plates (Packard) using a 96-well tissue harvester (Brandel) and followed by three filtration washes with 200 μl ice-cold binding buffer (10 mM NaH2PO4, 10 mM Na2HPO4, pH 7.4). Filter plates were subsequently dried at 50° C. for 2-3 hours. Fifty μl/well scintillation cocktail (MicroScint20, Packard) was added and plates were counted in a Packard Top-Count for 1 min/well.
Data were analyzed using the curve fitting functions in GraphPad PRISM™, v.
Turning to `CC(C)CCC(C)N1CCC(N2C(=O)CCc3ccccc32)CC1` (centres unmarked), the Ki was 0.156 µM.
